Source: ChEMBL document CHEMBL4665792, “Design and SAR of Withangulatin A Analogues that Act as Covalent TrxR Inhibitors through the Michael Addition Reaction Showing Potential in Cancer Treatment” (J Med Chem, 2020)

Species: Homo sapiens
Assay: Covalent inhibition of TrxR (unknown origin) assessed as ratio of Kinact to ki incubated up to 30 mins in presence of NADPH by Ellman's method
Settings: time min <=30

Row | Ratio [µM⁻¹ min⁻¹] | Compound
1 | 0.0254 | CC(=O)O[C@H]1C=C([C@H](C)[C@H]2CC(C)=C(C)C(=O)O2)[C@@]2(C)CC[C@H]3[C@@H](C[C@H]4O[C@]45[C@@H](OC(=O)/C=C/C(=O)N(C)C)C=CC(=O)[C@]35C)[C@]12O
2 | 0.004 | CC(=O)O[C@H]1C=C([C@H](C)[C@H]2CC(C)=C(C)C(=O)O2)[C@@]2(C)CC[C@H]3[C@@H](C[C@H]4O[C@]45[C@@H](O)C=CC(=O)[C@]35C)[C@]12O
